Measurements taken from patent US20230056821A1.

The chains behind the UniProt entries cited, without tags or fusion partners. Where a name states a change or a piece, a line headed by the entry shows the natural chain unless it says otherwise.
UniProt P15692: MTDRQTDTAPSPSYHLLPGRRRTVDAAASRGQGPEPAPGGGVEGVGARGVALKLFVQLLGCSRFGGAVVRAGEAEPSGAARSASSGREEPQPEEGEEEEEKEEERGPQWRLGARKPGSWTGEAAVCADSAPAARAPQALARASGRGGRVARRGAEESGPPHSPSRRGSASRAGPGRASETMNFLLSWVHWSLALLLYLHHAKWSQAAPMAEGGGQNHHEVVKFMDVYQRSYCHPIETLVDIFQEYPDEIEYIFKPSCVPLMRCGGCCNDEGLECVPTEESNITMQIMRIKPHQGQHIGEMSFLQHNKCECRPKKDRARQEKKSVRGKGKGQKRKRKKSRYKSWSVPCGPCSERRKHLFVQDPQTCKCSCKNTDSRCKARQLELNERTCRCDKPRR

How the values were obtained:
VEGF-A165 (human) [1] = molecular target: VEGF-A165 (human) (UniProt P15692); assay: SPR, Biacore T200
VEGF-A121 = VEGF-A121 (UniProt P15692); assay: SPR, Biacore T200
VEGF-A165 (human) [2] = molecular target: VEGF-A165 (human) (UniProt P15692); assay: cell-based or functional assay

- Kd (VEGF-A165 (human) [1]): 0.0322 nM
- koff (VEGF-A165 (human) [1]): 4.06e-05 s⁻¹
- kon (VEGF-A165 (human) [1]): 1.26e+06 M⁻¹ s⁻¹
- Kd (VEGF-A121): 0.0662 nM
- koff (VEGF-A121): 2.49e-05 s⁻¹
- kon (VEGF-A121): 375000 M⁻¹ s⁻¹
- EC50 (ng/mL), inhibition of VEGF-A-induced HUVEC proliferation (CCK-8) (VEGF-A165 (human) [2]): 87.1 ng/mL
- EC50, inhibition of VEGF-A-induced HUVEC proliferation (CCK-8) (VEGF-A165 (human) [2]): 0.584 nM
Substance: Bevacizumab injection (antibody)
